This note sets out measurements from patent US20070026465A1, “Method for detecting GAD65 autoreactive T cells newly diagnosed type1 diabetic patients and in the prediabetic period” (priority 2005, published 2007).

The test system of the assay is PBMC of newly diagnosed T1D patients. Put plainly: GAD65 HLA class I tetramer staining and flow cytometry of stimulated PBMC, T1D patients. The class given is cell-based, human. The conditions noted are these: IL-2 treated PBMC. More on the design: % CD3+/CD8+/GAD65 reactive T cells, average / % CD3+/CD8+/GAD65 reactive T cells: concentration or dose not given beside the values.

Where “and” joins values, the source holds several entries; their conditions need not be identical. Equal entries are not always repeated.

In the case of “IL-2: cytokine used at 25 IU/ml for basal stimulation of PBMC [reference compound]”, for the setting “average of 22 T1D patients, day 6”, the “% CD3+/CD8+/GAD65 reactive T cells, average” value stood at 4.0%. For the same substance, under “individual T1D patients, day 6 of culture”, the “% CD3+/CD8+/GAD65 reactive T cells” value is 1.4% and 0.32% and 0.1% and 2.44% and 0.2% (3×) and 5% and 20% and 8.6% and 0.75% and 14% and 11% and 0.6% and 1.74% and 2.45% and 0.21% and 2.47% and 15% and 0.28% (2×) and 1.31%.
